{"source": "patent US12161748B2", "about": "“Topical formulations comprising tofacitinib” (TWi Biotechnology, Inc., priority 2018, dated 2024)", "assay": "Compatibility study of dissolved tofacitinib citrate with excipients, 60° C. seven days, HPLC", "assay_type": "physicochemical", "details": "tofacitinib citrate in DMSO, 60° C. for seven days", "note": "Where a name gives a salt, the structure may show the parent alone.", "data": [{"smiles": "C[C@@H]1CCN(C(=O)CC#N)C[C@@H]1N(C)c1ncnc2[nH]ccc12", "note": "[Tofacitinib Citrate, 3-((3R,4R)-4-methyl-3-[methyl-(7H-pyrrolo[2,3-d]pyrimidin-4-yl)-amino]-piperidin-1-yl)-3-oxopropionitrile]", "values": [{"measurement": "total degradation products", "result": 4.17, "unit": "%"}]}]}
